The values that follow come from US20090088432A1, “Thiazolinones and Oxazolinones and their Use as Ptp1b Inhibitors” (priority 2005, published 2009).

For test [1], the system named is high fat fed C57BL/6 male mice. Description: Fasted and non-fasted blood glucose in diet induced obese mice. The note with it: 200 mg/kg, change from baseline (day 0), vs. vehicle control.
Test [2] concerns high fat fed C57BL/6 male mice. Description: Intraperitoneal insulin tolerance test (ITT) in diet induced obese mice. The note with it: 200 mg/kg, i.p., end of 4 days of treatment; glucose at 15, 30, 60 and 120 min post insulin challenge, vs. vehicle.

As for “N-{2-[4-(5-Biphenyl-4-ylmethlene-4-oxo-4,5-dihydro-thiazol-2-ylamino)-phenyl]-acetyl}-4-methyl-benzenesulfonamide sodium salt”, in test [1] (i.p. for 4 days, day 4, one hour post dosing), the “percent change in non-fasted blood glucose” value is listed as “significant improvement”. In test [1] (i.p., 4 hr fasted, day 2 post dosing), the “percent change in fasted blood glucose” value was “significant improvement”. The “AUC blood glucose post insulin tolerance test (insulin sensitivity)” value in test [2] is recorded as “improved insulin sensitivity”.
